Curated experimental data: logP (octanol/water) values

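These are experimental values that the OPERA curators gathered from public databases to train and test their QSAR models. A listed value is a point estimate from one report or more. Conditions of the individual experiments are not part of the data. A value may pool stereoisomers or salt forms, and the file does not say which form was measured. Some upstream entries may be estimates or bounds without being marked so.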

logP is the log10 of the octanol-water partition coefficient; higher is more lipophilic.
Cells with "–" have no entry in this list.
The databases behind each value are named after "via".

| log Kow | compound | name | via |
|---|---|---|---|
| 0.39 | Cc1c([N+](=O)[O-])nc(Br)n1C | 2-Bromo-1,5-dimethyl-4-nitro-1H-imidazole | OCHEM |
| 5.94 | CCN(CC)CCN1c2ccccc2Sc2ccccc21 | Diethazine | OCHEM |
| -5.13 | O=S(=O)([O-])c1ccc2c(/N=N\c3ccc(S(=O)(=O)[O-])c4ccccc34)c(O)c(S(=O)(=O)[O-])cc2c1.[Na+].[Na+].[Na+] | Amaranth | eChemPortal |
| 5 | CC(C)(C)c1ccc(C2=C3C(=O)NC(c4ccc(C(C)(C)C)cc4)=C3C(=O)N2)cc1 | C.I. Pigment Orange 73 | eChemPortal |
| 3.025 | C=COCCCC | Butyl vinyl ether | eChemPortal |
| 3.58 | C=Cc1ccccc1Cl | 2-Chlorostyrene | PubChem |
| -2.6 | CCn1cc[n+](C)c1.[Cl-] | 1-Ethyl-3-methylimidazolium chloride | eChemPortal |
| 2.41 | CCCCCCCC/C=C\CCCCCCCC[N+](C)(CCO)CCO.[Cl-] | – | eChemPortal |
| 4.18 | O=C(C=Cc1ccccc1)OCc1ccccc1 | Benzyl cinnamate | eChemPortal |
| -3.26 | CN(c1ccccc1)c1nc(Cl)nc(Nc2cc(S(=O)(=O)[O-])cc3cc(S(=O)(=O)[O-])c(/N=N/c4ccccc4S(=O)(=O)[O-])c(O)c23)n1.[Na+].[Na+].[Na+] | – | eChemPortal |
| 3.9 | Cc1cccc(C)c1OCC(O)COc1c(C)cccc1C | 1,3-Bis(2,6-dimethylphenoxy)-2-propanol | eChemPortal |
| -0.04 | CCCC[P+](CCCC)(CCCC)CCCC.[Br-] | Tetrabutylphosphonium bromide | eChemPortal |
| 4.2 | C[Si](C)(C)O[Si](C)(C)C | Hexamethyldisiloxane | OCHEM |
| 0.021 | O=C([O-])C(O)C(O)C(O)C(O)CO.O=C([O-])C(O)C(O)C(O)C(O)CO.[Ca+2] | – | eChemPortal |
| 0.81 | CC(C)OC(=O)c1cc(=O)[nH]c(=O)[nH]1 | – | OCHEM |
| 1.12 | CCOc1nc(F)cc2nc(S(=O)(=O)Nc3c(Cl)cccc3C(=O)OC)nn12 | Cloransulam-methyl | OCHEM, PubChem |
| 1.5 | CC(=O)Oc1cc(OC(C)=O)cc(C(C)=O)c1 | 5-Acetyl-1,3-phenylene diacetate | eChemPortal |
| -1.96 | NC(=O)C1=CN(C2OC(COP(=O)([O-])OP(=O)([O-])OCC3OC(n4cnc5c(N)ncnc54)C(O)C3O)C(O)C2O)C=CC1.[Na+].[Na+] (centres undefined) | NADH disodium salt | eChemPortal |
| -1.46 | NCCNCCO | N-(Hydroxyethyl)ethylenediamine | eChemPortal |
| 3.95 | ClC1=C(Cl)C(Cl)C(Cl)C(Cl)C1 (centres undefined) | 2,3,4,5,6-Pentachlorocyclohexene | OCHEM |
| 3.3 | CCCCCC(C)(O)/C=C/C1C(O)CC(O)C1C/C=C\CCCC(=O)O.NC(CO)(CO)CO (stereo partly drawn) | Carboprost tromethamine | PubChem |
| -1.7 | O=C([O-])c1ccccc1-c1c2ccc3cc([O-])ccc3c2oc2c1ccc1cc(=O)ccc12.[Na+].[Na+] | – | eChemPortal |
| 0.89 | C=C(C)CCO | 3-Methylbut-3-en-1-ol | eChemPortal |
| -1.69 | CC(C)(CO)[C@@H](O)C(=O)NCCC(=O)O | Pantothenic acid | OCHEM |
| 5.03 | CCCCCCCCc1ccc(N)cc1 | 4-Octylaniline | OCHEM |
| 2.32 | CCNc1ccc(C)cc1 | Benzenamine, N-ethyl-4-methyl- | OCHEM |
| 3.085 | C=COCC(C)C | Vinyl isobutyl ether | eChemPortal |
| 6.41 | CCCCCCCC[Si](OCC)(OCC)OCC | Triethoxyoctylsilane | eChemPortal |
| 1.97 | COc1cccc2c(O)c3c(c(N)c12)C(=O)C1=C(C[C@](O)(C(=O)CO)C[C@@H]1O[C@H]1C[C@@H](N2CCOC[C@@H]2C#N)[C@@H](O)[C@@H](C)O1)C3=O | – | OCHEM |
| -3.055 | C[N+](C)(C)C1CCCCC1.C[N+](C)(C)C1CCCCC1.O=S(=O)([O-])[O-] | N,N,N-Trimethylcyclohexanaminium sulfate (2:1) | eChemPortal |
| -2.94 | O=S(=O)(O)CCCN1CCOCC1 | 4-Morpholinepropanesulfonic acid | eChemPortal |
| 4.7 | COc1ccccc1N1CCN(CCC=Cc2ccc(F)cc2)CC1 | – | OCHEM |
| -0.86 | O=C1C=CN([C@@H]2O[C@H](CO)[C@@H](O)[C@H]2O)C(=O)C1 | 1-beta-D-Ribofuranosyl-2,4(1H,3H)-pyridinedione | OCHEM |
| 2.7 | C#CCOc1cc(-n2nc3n(c2=O)CCCC3)c(Cl)cc1Cl | Azafenidin | OCHEM |
| 1.54 | O=C(Nc1cccc(N(CCO)CCO)c1)c1ccccc1 | Benzamide, N-[3-[bis(2-hydroxyethyl)amino]phenyl]- | OCHEM |
| 0.06 | CCCC(O)CO (centres undefined) | – | eChemPortal |
| 7.1 | CC(C)(C)c1ccc(C(O)CCCN2CCC(C(O)(c3ccccc3)c3ccccc3)CC2)cc1 (centres undefined) | Terfenadine | PubChem |
| -0.36 | O=C1CC(Cl)C(=O)N1c1ccccc1 (centres undefined) | 3-Chloro-1-phenylpyrrolidine-2,5-dione | OCHEM |
| -3.51 | C=Cn1cc[n+](C)c1.[Cl-] | 1-Ethenyl-3-methyl-1H-imidazol-3-ium chloride | eChemPortal |
| 2.12 | CCOC(=O)/C=C/C(=O)OCC | (2E)-2-Butenedioic acid diethyl ester | OCHEM |
| 3.39 | CC(Cc1ccc(C(C)(C)C)cc1)C(=O)O (centres undefined) | 3-(4-tert-Butylphenyl)-2-methylpropanoic acid | OCHEM |
| 0.4 | COc1cc(CCC(C)=O)ccc1O | 4-(4-Hydroxy-3-methoxyphenyl)-2-butanone | OCHEM |

Repeated from above, the 6 entries with the highest log Kow:

compound	name	log Kow	via
CC(C)(C)c1ccc(C(O)CCCN2CCC(C(O)(c3ccccc3)c3ccccc3)CC2)cc1 (centres undefined)	Terfenadine	7.1	PubChem
CCCCCCCC[Si](OCC)(OCC)OCC	Triethoxyoctylsilane	6.41	eChemPortal
CCN(CC)CCN1c2ccccc2Sc2ccccc21	Diethazine	5.94	OCHEM
CCCCCCCCc1ccc(N)cc1	4-Octylaniline	5.03	OCHEM
CC(C)(C)c1ccc(C2=C3C(=O)NC(c4ccc(C(C)(C)C)cc4)=C3C(=O)N2)cc1	C.I. Pigment Orange 73	5	eChemPortal
COc1ccccc1N1CCN(CCC=Cc2ccc(F)cc2)CC1	–	4.7	OCHEM

Values as listed in the OPERA 2.9 repository of K. Mansouri.